In PMC8906792, “Evidence for Paracrine Protective Role of Exogenous αA-Crystallin in Retinal Ganglion Cells” (eNeuro, 2022):

Molecular target: the molecule itself
Test: native gel or EMSA; NativePAGE 3-12% Bis-Tris gel, 7.5 ug of recombinant protein per lane; oligomer profile from <480 to 1236 kDa, median size read against markers

B1: recombinant wild-type human αA-crystallin (natural protein, UniProt P02489 1-173, looked up)
chain: MDVTIQHPWFKRTLGPFYPSRLFDQFFGEGLFEYDLLPFLSSTISPYYRQSLFRTVLDSGISEVRSDRDKFVIFLDVKHFSPEDLTVKVQDDFVEIHGKHNERQDDHGYISREFHRRYRLPSNVDQSALSCSLSADGMLTFCGPKIQTGLDATHAERAIPVSREEKPTSAPSS
notes: αA-crystallin, human, cDNA in pET23d+; Polydisperse oligomer; purification follows Horwitz et al., 1999; also called WT; αA-WT; source: E. coli BL21(DE3) pLysS, purified (size exclusion chromatography; endotoxin removed with Triton X-114)
B1: binds.
